Experimental data as given in publication PMC9481533, “Structure-based discovery of small molecules that disaggregate Alzheimer’s disease tissue derived tau fibrils in vitro” (Nature Communications, 2022).
Several values for one entry are separate records, joined by “and”; a condition that tells them apart may be missing. Identical values can stand only once.

By UniProt entry, the sequences of proteins in these tests, tags left out. Residues count along the entry.
UniProt P10636, 623-695 limits assumed: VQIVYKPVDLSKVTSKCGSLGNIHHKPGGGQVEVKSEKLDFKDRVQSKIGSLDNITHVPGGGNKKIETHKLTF

Target: crude AD brain extracts (tau seeds) in HEK293T tau biosensor cells (Homo sapiens, UniProt P10636)
Experiment: Tau biosensor cell seeding assay, screen with crude AD brain extracts
Type: cell-based
Details: for Number of seeded aggregates in tau biosensor cells (normalized to confluence), Fig. 2e: 10 μM inhibitor on cells, seeds pre-incubated 16–18 h at 4 °C, individual replicates (n=3), DMSO control 10734.9/12808.5/11145.3
Text: From the in silico screen, compounds were ranked and 46 were selected for further experimental validation based on the total binding energy of the ligand/fibril complex. The experimental assessment consisted of direct measures of fibril disassembly (Fig. 2d, e and Supplementary Table 3) and assessment of the seeding capability of the products of disassembled AD tau fibrils in a biosensor cell assay. Disaggregating molecules that produce active seeds are undesirable for therapy and are excluded from further study. HEK293T cells expressing CFP- or YFP-fused tau are transduced with exogenous AD tau fibrils. Externally applied AD-tau fibrils then induce the aggregation of the endogenous fluorescent tau, resulting in the formation of FRET-positive intracellular aggregates, visible as bright puncta by fluorescence microscopy (Fig. 2f). Automated image analysis of visible puncta provides an objective quantification of seeded aggregation. […] Although biosensors may be limited in reporting structural characteristics of fibril progeny, they offer exquisitely sensitive measures of tau seeding activity—the ability for fibrils to recruit monomeric protein into fibrillar form, which is thought to be the mechanism for tau spreading in AD.
Human autopsy samples were obtained by the Mayo Clinic Brain Bank and UCLA Pathology Department according to HHS regulations from patients consenting to autopsy. Samples were provided to the researchers of this study as anonymized tissues. […]
HEK293T cell lines stably expressing tau-K18 P301S-eYFP were obtained from Marc Diamond[25] and used without further characterization or authentication. […] The number of seeded aggregates was determined by imaging the entire well of a 96-well plate in triplicate using a Celigo Image Cytometer (Nexcelom) in the YFP channel. The number of aggregates in a given image was determined using an ImageJ 2.3.0[50] script, which subtracts the background fluorescence from unseeded cells, and then counts the number of aggregates as peaks with fluorescence above the background using the built-in Particle Analyzer. […]

| Number of seeded aggregates in tau biosensor cells (normalized to confluence), Fig. 2e | Inhibition of seeding in biosensor cells (10 μM screen) | SMILES |
| --- | --- | --- |
| 10778.7 and 7947.89 and 13610.9 |  | CN(C)CCc1c[nH]c2ccc(C[C@H]3COC(=O)N3)cc12 [FDA-R-25, Zolmitriptan] |
| 2296.49 and 3309.68 and 5554.06 | modest | CCCCC1C(=O)N(c2ccccc2)N(c2ccccc2)C1=O [FDA-R20, Phenylbutazone] |
